Laboratory results published in article PMC12754760, “Size-Controlled Mesoporous Silica Nanoparticles via Template Nanoarchitectonics from a Deferoxamine Derivative for Enhanced Blood–Brain Barrier Permeability and Neuroprotective Chelation Therapy” (ACS Applied Materials & Interfaces, 2025).

Columns and labels:
[1] = Octanol-water log P, shake flask method; assay type: physicochemical; settings: RP-HPLC-MS
[2] = design: method as in Ul-Haq et al.; settings: ref Ul-Haq et al.; cited from earlier work

## Deferoxamine mesylate [DFO]
[1]
  Log P (experimentally obtained): –0.02
[2]
  LD50: 250 mg·kg^–1
